Only a part is listed here, and it is no random draw. Some salts and complexes are drawn in separate pieces, as the source files them; their charges need not balance. The source made the active and inactive calls.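 The calls were made as follows: active = inhibition above its plate's cutoff, the mean of tested wells on that plate plus 3 SD (cut at about 29% in these data); inactive = the rest.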
Each compound was assayed against Melanocortin receptor 4 (Homo sapiens) (UniProt P32245) (assay: blockers of MC4R Gs-cAMP response – cell-based, TR-FRET, antagonist arm of biased-ligand search, primary screen (AID 540295;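 also: 0% = Melanotan II alone and 100% = Melanotan II plus saturating MCL0020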)). Conditions: MC4R-expressing cells, MTII-stimulated cAMP, LANCE TR-FRET; at 6.5 µM; active compounds read high.

By UniProt entry, the sequences of proteins in these tests, tags left out.
UniProt P32245, whole entry: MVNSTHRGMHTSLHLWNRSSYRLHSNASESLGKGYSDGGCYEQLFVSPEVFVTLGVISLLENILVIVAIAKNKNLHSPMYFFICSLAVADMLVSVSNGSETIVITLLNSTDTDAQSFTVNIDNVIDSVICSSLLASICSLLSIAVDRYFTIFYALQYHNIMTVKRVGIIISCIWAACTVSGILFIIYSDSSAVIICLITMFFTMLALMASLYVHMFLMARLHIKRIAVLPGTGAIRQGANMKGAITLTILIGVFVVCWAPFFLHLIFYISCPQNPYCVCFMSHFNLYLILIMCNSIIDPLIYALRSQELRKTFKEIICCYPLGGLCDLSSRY

Compound	inhibition
O=[N+]([O-])c1ccc(OP2(=O)COCCO2)cc1 (stereo not drawn)	inactive: 8.95%
O=[N+]([O-])c1cc([N+](=O)[O-])c(NCC2CCS(=O)(=O)C2)c([N+](=O)[O-])c1 (stereo not drawn)	inactive: 16.5%
Cc1cc(-c2cccc3ccccc23)c(C)cn1.O=[N+]([O-])c1cc([N+](=O)[O-])c(O)c([N+](=O)[O-])c1	inactive: -5.86%
Cc1c(C(c2ccc3c(c2)OCO3)c2c(C)n(C)n(-c3ccccc3)c2=O)c(=O)n(-c2ccccc2)n1C.O=[N+]([O-])c1cc([N+](=O)[O-])c(O)c([N+](=O)[O-])c1	inactive: 12.1%
COc1ccc(OP(C)(=O)Nc2cccc(Br)c2)cc1 (stereo not drawn)	inactive: -5.35%
CN(C)CCOC(=O)C(O)(c1ccccc1)C1CCCCC1 (stereo not drawn)	inactive: 2.54%
COc1ccc(NP(C)(=O)Oc2ccccc2OC)cc1 (stereo not drawn)	inactive: 7.62%
CP(=O)(Nc1ccc2c(c1)OCCO2)Oc1ccccc1 (stereo not drawn)	inactive: 3.3%
Cc1ccccc1NP(C)(=O)Nc1ccccc1C	inactive: -0.07%
CP(=O)(Nc1ccc(SC(F)(F)F)cc1)Oc1ccc(F)cc1 (stereo not drawn)	inactive: 17.8%
CCOP(C)(=S)SCC(=O)NC(C)(CC)C(=O)O (stereo not drawn)	inactive: 10%
O=C(OC1CN2CCC1CC2)c1ccc([N+](=O)[O-])cc1 (stereo not drawn)	inactive: 21.2%
O=C(OCCN1CCN(CCOCc2ccccc2)CC1)C(O)(c1ccccc1)c1ccccc1	inactive: -2.68%
COc1ccc2c(c1O)-c1c(O)c(OC)cc3c1[C@H](C2)[N+](C)(C)CC3.O=[N+]([O-])c1cc([N+](=O)[O-])c([O-])c([N+](=O)[O-])c1[O-]	inactive: 1.75%
O=[N+]([O-])c1cc([N+](=O)[O-])c(Nc2ccc(Cl)cc2)c([N+](=O)[O-])c1	inactive: 18.8%
CP(=O)(Nc1ccccc1F)Oc1ccccc1 (stereo not drawn)	inactive: 1.36%
CC(C)c1ccc(OP(C)(=O)Nc2ccc(SC(F)(F)F)cc2)cc1 (stereo not drawn)	inactive: 7.41%
Cc1c([N+](=O)[O-])cc([N+](=O)[O-])c(Br)c1[N+](=O)[O-]	inactive: 4.92%
CCN(CC)CCCOC(=O)C(O)(c1ccccc1)C1CCCCC1 (stereo not drawn)	inactive: 0.85%
CP(=O)(Nc1ccccc1)Oc1ccc(F)cc1 (stereo not drawn)	inactive: 8.8%
CCCCCOc1ccc(NP(C)(=O)Oc2ccc(Cl)cc2Cl)cc1 (stereo not drawn)	inactive: -3.66%
O=[N+]([O-])c1cc([N+](=O)[O-])c(OC2CCCCC2O)c([N+](=O)[O-])c1 (stereo not drawn)	inactive: 15.6%
CCOC(=O)c1ccc(NP(C)(=O)Oc2ccc(F)cc2)cc1 (stereo not drawn)	inactive: 9.92%
COc1ccc(OP(C)(=O)Nc2ccc(SC(F)(F)F)cc2)cc1 (stereo not drawn)	inactive: 3.41%

Compound	inhibition
CP(=O)(OCCOc1ccccc1)OCCOc1ccccc1	inactive: 0.66%
CCCCCCCCCCCCCCCC1C[N+](C)(C)CCOP(C)(=O)O1 (stereo not drawn)	inactive: 17.4%
CP(=O)(Nc1ccc(Cl)cc1Cl)Oc1ccccc1 (stereo not drawn)	inactive: 7.13%
Cc1cc(C)cc(OP(C)(=O)Nc2cccc(C(F)(F)F)c2)c1 (stereo not drawn)	inactive: 1.46%
O=C1C(O)=C([N+](=O)[O-])C(=O)C(O)=C1[N+](=O)[O-]	inactive: 0.13%
COc1ccccc1OP(C)(=O)Nc1ccc(C)c(C)c1 (stereo not drawn)	inactive: 3.2%
COc1ccc(OP(C)(=O)Nc2ccccc2Br)cc1 (stereo not drawn)	inactive: 5.37%
O=[N+]([O-])c1cc([N+](=O)[O-])c(Nc2ccccn2)c([N+](=O)[O-])c1	inactive: 2.46%
Cc1c(NP(C)(=O)Oc2ccc(C(C)C)cc2)c(=O)n(-c2ccccc2)n1C (stereo not drawn)	inactive: 1.39%
COc1ccccc1OP(C)(=O)Nc1ccc(C)cc1C (stereo not drawn)	inactive: -5.8%
CP(=O)(Nc1ccccn1)Oc1ccccc1 (stereo not drawn)	inactive: 1.84%
CCc1ccc(OP(C)(=O)O)cc1	inactive: 6.78%
COc1ccccc1OP(C)(=O)Nc1ccc(Br)cc1 (stereo not drawn)	inactive: 5.18%
CN(C)CCOC(=O)C(O)(c1ccccc1)C1CCCC1 (stereo not drawn)	inactive: 1.66%
CC(C)(C)c1ccc(OP(C)(=O)O)cc1	inactive: 9.67%
COc1ccccc1OP(C)(=O)Nc1ccccc1Br (stereo not drawn)	inactive: 12.2%
CP(=O)(Nc1ccc(Cl)cc1)Oc1ccc(F)cc1 (stereo not drawn)	inactive: 15.9%
CN(C)C(=O)c1c([N+](=O)[O-])cc([N+](=O)[O-])cc1[N+](=O)[O-]	inactive: -6.45%
COc1ccc(OP(C)(=O)Nc2ccc(Br)cc2)cc1 (stereo not drawn)	inactive: 4.99%
CCN(CC)CC(O)COC(=O)C(O)(c1ccccc1)C1CCCCC1 (stereo not drawn)	inactive: 2.65%
O=C(OCCCN1CCCC1)C(O)(c1ccccc1)C1CCCCC1 (stereo not drawn)	inactive: 6.35%
COc1ccccc1OP(C)(=O)Nc1c(C)n(C)n(-c2ccccc2)c1=O (stereo not drawn)	inactive: 0.04%
CCc1ccc(OP(C)(=O)Nc2cccnc2)cc1 (stereo not drawn)	inactive: 27.5%
CP(=O)(Oc1ccccc1)N1CCOC1=O (stereo not drawn)	inactive: 0.96%

Compound	inhibition
CCOC(=O)c1ccc(NP(C)(=O)Oc2ccc(Cl)cc2)cc1 (stereo not drawn)	inactive: 11.7%
CP(=O)(OC12CC3CC(CC(C3)C1)C2)OC12CC3CC(CC(C3)C1)C2	inactive: 9.9%
CP(=S)(Nn1cnnc1)Oc1ccccc1 (stereo not drawn)	inactive: 2.09%
CP(=O)(Nc1ccccc1Br)Oc1ccccc1 (stereo not drawn)	inactive: 2.01%
COc1ccccc1OP(C)(=O)Nc1ccccc1 (stereo not drawn)	inactive: -1.02%
O=[N+]([O-])c1cc([N+](=O)[O-])c(O)c([N+](=O)[O-])c1.c1ccc(Oc2ccncc2)cc1	inactive: 11.1%
CCOC(=O)c1ccc(NP(C)(=O)Oc2ccc(OC)cc2)cc1 (stereo not drawn)	inactive: 12.1%
CCOP(C)(=S)SCC(=O)NC(C)C(=O)O (stereo not drawn)	inactive: 8.02%
CP(=O)(Nc1ccccn1)Oc1ccc(Cl)cc1 (stereo not drawn)	inactive: 6.73%
CP(=O)(Oc1ccccc1)OC(c1ccccc1)C(F)(F)F (stereo not drawn)	inactive: 1.44%
CP(=O)(Nc1ccc(SC(F)(F)F)cc1)Oc1ccc(Cl)cc1 (stereo not drawn)	inactive: 2.57%
Cc1cccc(C)c1OP(C)(=O)Nc1ccc(SC(F)(F)F)cc1 (stereo not drawn)	inactive: 6.53%
Cc1ccc(Nc2c([N+](=O)[O-])cc([N+](=O)[O-])cc2[N+](=O)[O-])cc1	inactive: 6.14%
Cc1cc(C)cc(OP(C)(=O)Nc2ccc(SC(F)(F)F)cc2)c1 (stereo not drawn)	inactive: -4.15%
CCc1ccc(OP(C)(=O)N2CCN(c3ccc([N+](=O)[O-])cc3)CC2)cc1 (stereo not drawn)	inactive: 9.76%
CP(=O)(NC(=O)Nc1ccccc1)Oc1ccccc1 (stereo not drawn)	inactive: -2.98%
CCN(CC)CCCOC(=O)C(O)(c1ccccc1)c1ccccc1	inactive: 1.25%
Cc1ccc(NP(C)(=O)Oc2ccccc2)c(C)c1 (stereo not drawn)	inactive: 3.73%
COc1ccccc1OP(C)(=O)Nc1ccc(C)cc1 (stereo not drawn)	inactive: -1.4%
CCOC(=O)c1ccc(NP(C)(=O)Oc2ccccc2)cc1 (stereo not drawn)	inactive: 7.22%
Cc1cc(C)cc(OP(C)(N)=O)c1 (stereo not drawn)	inactive: 12.2%
COc1ccc(OP(C)(=O)Nc2cccc(F)c2)cc1 (stereo not drawn)	inactive: 7.38%
COc1ccccc1OP(C)(=O)Nc1cc(Cl)ccc1C (stereo not drawn)	inactive: -1.26%
O=[N+]([O-])c1cc([N+](=O)[O-])c(Nc2cccnc2)c([N+](=O)[O-])c1	inactive: -1.5%

Compound	inhibition
O=[N+]([O-])c1ccc2c(c1)C=Nc1ccccc1O2	inactive: -21.5%
Cc1cccc(C)c1OP(C)(N)=O (stereo not drawn)	inactive: 1.01%
CC(C)(C)c1ccc(OP(C)(=O)Nc2ccc(SC(F)(F)F)cc2)cc1 (stereo not drawn)	inactive: 13.9%
CC1=NCCc2c1[nH]c1ccccc21.O=[N+]([O-])c1cc([N+](=O)[O-])c(O)c([N+](=O)[O-])c1	inactive: 8.33%
O=C(O)c1cccc(Nc2c([N+](=O)[O-])cc([N+](=O)[O-])cc2[N+](=O)[O-])c1	inactive: 13.2%
Cc1ccc(C)c(NP(C)(=O)Oc2ccccc2)c1 (stereo not drawn)	inactive: -6.98%
CP(=O)(Nc1cccc(Br)c1)Oc1ccccc1 (stereo not drawn)	inactive: 6.35%
Cc1cc(C)cc(OP(C)(=O)Nc2ccccn2)c1 (stereo not drawn)	inactive: 4.21%
COc1ccccc1OP(C)(=O)Nc1cccc(Br)c1 (stereo not drawn)	inactive: 9.14%
CCOC(=O)c1ccc(NP(C)(=O)Oc2cc(C)cc(C)c2)cc1 (stereo not drawn)	inactive: -6.42%
Cc1cc(C)cc(OP(C)(=O)Nc2ccc(C)cc2C)c1 (stereo not drawn)	inactive: 4.55%
O=[N+]([O-])c1cc([N+](=O)[O-])c(-c2cnn(-c3ccccc3)c2)c([N+](=O)[O-])c1	inactive: 4.76%
Cc1nc2ccc3ccccc3c2s1.O=[N+]([O-])c1cc([N+](=O)[O-])c(O)c([N+](=O)[O-])c1	inactive: -1.46%
O=[N+]([O-])c1cc([N+](=O)[O-])c(-n2nnc3ccccc32)c([N+](=O)[O-])c1	inactive: 1.45%
CN1CCCCC1COC(=O)C1(O)c2ccccc2CCc2ccccc21 (stereo not drawn)	inactive: -1.16%
COc1ccccc1OP(C)(=O)Nc1c(C)cccc1C (stereo not drawn)	inactive: 15.6%
CP(=O)(Nc1ccc(SC(F)(F)F)cc1)Oc1ccccc1 (stereo not drawn)	inactive: 5.69%
CCCOc1ccc(NP(C)(=O)Oc2ccc(Cl)cc2)cc1 (stereo not drawn)	inactive: 0.75%
CCOC(=O)C(CC)C1=NC(C)(C)Cc2ccccc21.O=[N+]([O-])c1cc([N+](=O)[O-])c(O)c([N+](=O)[O-])c1 (stereo not drawn)	inactive: 5.65%
O=[N+]([O-])c1cc([N+](=O)[O-])c(Nc2nnnn2CCO)c([N+](=O)[O-])c1	inactive: 9.78%
CC1=C2N=C(C=C3N=C(C(C)=C4[N-][C@@](C)([C@@H]5N=C1[C@](C)(CCC(=O)NC[C@@H](C)OP(=O)([O-])O[C@H]1[C@@H](O)[C@@H](n6cnc7cc(C)c(C)cc76)O[C@@H]1CO)[C@H]5CC(N)=O)[C@@](C)(CC(N)=O)[C@@H]4CCC(N)=O)[C@@](C)(CC(N)=O)[C@@H]3CCC(N)=O)C(C)(C)[C@@H]2CCC(N)=O.[C-]#N.[Co+3]	inactive: 1.83%
